Values of other authors as cited in patent publication US8236827B2, “Compounds” (Spear Therapeutics Limited, priority 2009, dated 2012).

Target: T1, Human Cytochrome P450 1B1 (Homo sapiens, UniProt Q16678)
T1 sequence (Q16678 1-543): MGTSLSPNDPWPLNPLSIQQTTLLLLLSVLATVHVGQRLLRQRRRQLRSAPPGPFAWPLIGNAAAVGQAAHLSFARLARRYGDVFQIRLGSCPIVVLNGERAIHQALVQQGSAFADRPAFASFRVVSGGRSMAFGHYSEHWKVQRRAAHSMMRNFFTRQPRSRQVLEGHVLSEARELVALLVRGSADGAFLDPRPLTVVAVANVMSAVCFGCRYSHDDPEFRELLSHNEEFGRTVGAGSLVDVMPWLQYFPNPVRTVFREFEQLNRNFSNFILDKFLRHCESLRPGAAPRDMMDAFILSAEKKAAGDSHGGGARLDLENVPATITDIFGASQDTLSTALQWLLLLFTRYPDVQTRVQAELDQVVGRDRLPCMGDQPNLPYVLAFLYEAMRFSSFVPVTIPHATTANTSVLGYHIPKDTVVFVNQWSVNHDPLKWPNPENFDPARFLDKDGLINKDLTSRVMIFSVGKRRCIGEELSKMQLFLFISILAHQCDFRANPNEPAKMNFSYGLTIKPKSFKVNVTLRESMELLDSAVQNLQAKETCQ
Conditions: cited from earlier work

Tetramethoxystilbene
fold selective for CYP1B1 over CYP1A1: 30 fold
